Results as given in PubChem BioAssay (Tox21).
“And” between values parts separate entries of the source, which are not always exact repeats. Equal values may be shown once. Only a part is listed here, and it is no random draw. Records with an inconclusive call do not appear. The source made the active and inactive calls. Unless noted, calls come from the whole dose curve; as a rule, active = well fitted curve in the direction sought with a large enough effect in the repeat runs; inconclusive = weak or mixed curves; inactive = no such curve, though single readings can be large; an effect the other way counts as inactive or inconclusive.

Assays:
[1] = qHTS assay for small molecules that induce genotoxicity in human embryonic kidney cells expressing luciferase-tagged ATAD5 (AID 651632); note: nearly all actives have a fitted effect of over 15% in size; note: potency is the fitted concentration of half-maximal effect
Method in brief: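 Cells were seeded at 2,000 per well, dosed with compound, and incubated 16 hr at 37C in 5% CO2. Luciferase activity was then quantified after a 30 min room-temperature incubation with Amplite.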

[2] = qHTS assay for small molecule agonists of the p53 signaling pathway - cell viability (AID 651633; calls by dose curve; note: nearly all actives have a fitted effect of over 30% in size); details: p53RE-bla HCT-116 viability, ATP luminescence, 16 h
Method in brief: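 Viability counter-read: CellTiter-Glo luminescence (30 min, room temperature) in the same p53RE-bla plates. These plates had been exposed to compounds for 16 h at 37 C.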

[3] = qHTS assay for small molecules that induce genotoxicity in human embryonic kidney cells expressing luciferase-tagged ATAD5 - cell viability (AID 651634; calls by dose curve; note: nearly all actives have a fitted effect of over 25% in size); details: HEK293T ATAD5-luc cells viability, CellTiter-Fluor, 15.5 h
Method in brief: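 Cells (HEK293T, luciferase-tagged ATAD5) are seeded at 2,000 per well, dosed with compound or DMSO vehicle, and incubated 15.5 hr at 37C and 5% CO2. CellTiter-Fluor is added for 30 min before fluorescence is measured.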

[4] = qHTS assay to test for compound auto fluorescence at 590 nm (red) in HepG2 cells (AID 720674); details: HepG2 autofluorescence, red 540/590 nm, 1 h
Method in brief: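 1 hr compound incubation on HepG2 cells, 37 C, 5% CO2; plate read ex 540 nm / em 590 nm; intensities reported as Rose Bengal sodium equivalents.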

[5] = qHTS assay to test for compound auto fluorescence at 535 nm (green) in HepG2 cells (AID 720675); details: green autofluorescence 485/535 nm, 1 h
[6] = qHTS assay to test for compound auto fluorescence at 460 nm (blue) in HEK293 cells (AID 720678); details: blue autofluorescence 405/460 nm
Method in brief: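 Measured: blue fluorescence (Ex 405/Em 460 nm) of compound-treated HEK293 cells, incubated overnight at 37C with 5% CO2 and scaled to triamterene equivalents.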

[7] = qHTS assay to test for compound auto fluorescence at 535 nm (green) in HEK293 cells (AID 720680); details: green autofluorescence 485/535 nm
[8] = qHTS assay to test for compound auto fluorescence at 460 nm (blue) in HEK293 cell free culture (AID 720681); details: cell-free medium, autofluorescence 405/460 nm (blue)
Method in brief: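 Blue fluorescence (Ex 405/Em 460 nm, triamterene-equivalent) was read immediately after pin transfer of compound or DMSO into medium (DMEM, 10% FBS) without cells.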

[9] = qHTS assay for small molecule agonists of the p53 signaling pathway (AID 651631; calls by dose curve; note: nearly all actives have a fitted effect of over 15% in size); details: HCT-116 p53RE-bla reporter, beta-lactamase FRET ratio, 16 h
Method in brief: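 Beta-lactamase reporter activity under p53 response elements was quantified in HCT-116 cells by FRET fluorescence, following 16 h incubation with test compounds at 37 °C and 2 h substrate development at room temperature.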

[10] = qHTS assay for small molecule disruptors of the mitochondrial membrane potential (AID 720635)
Method in brief: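 Mitochondrial membrane potential tracked with Mito-MPS dye, red aggregates (ex 540/em 590 nm) against green monomers (ex 490/em 535 nm). Compound treatment 1 hr at 37C, dye 30 min in HepG2.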
% is set by controls: 0 for no effect and ±100 for the full control effect.

CCN(CC)CCCl
inactive: activity change, negative = cytotoxicity ([2]; at 95.3 µM (top of the series)) 7.96% | activity, negative = cytotoxicity ([3]; at 95.3 µM (top of the series)) -13.8% | fluorescence, relative to Rose Bengal ([4]; at 95.7 µM (top of the series)) 0.0168% | fluorescence, % of fluorescein control ([5]; at 95.7 µM (top of the series)) 0.0019% | fluorescence, % of triamterene ([6]; at 95.7 µM (top of the series)) -0.412% | fluorescence, % of fluorescein ([7]; at 95.7 µM (top of the series)) -0.126% | fluorescence, % of fluorescent control ([8]; at 95.7 µM (top of the series)) -0.118%
active: Potency [1] 62 µM

CC(C)N(CCO)C(C)C
inactive: activation ([9]; at 73.3 µM (top of the series)) -3.98% | Potency [1] | activity change, negative = cytotoxicity ([2]; at 83.3 µM (top of the series)) 15.1% | activity, negative = cytotoxicity ([3]; at 83.3 µM (top of the series)) 15.9% | fluorescence, relative to Rose Bengal ([4]; at 91.3 µM (top of the series)) 0.069% | fluorescence, % of fluorescein control ([5]; at 91.3 µM (top of the series)) -0.0105% | fluorescence, % of triamterene ([6]; at 91.3 µM (top of the series)) 0.237% | fluorescence, % of fluorescein ([7]; at 91.3 µM (top of the series)) 0.0128% | fluorescence, % of fluorescent control ([8]; at 91.3 µM (top of the series)) 0.148%

O=[N+]([O-])OCC(CO[N+](=O)[O-])(CO[N+](=O)[O-])CO[N+](=O)[O-]
inactive: activation ([9]; at 73.3 µM (top of the series)) -1.08% | Potency [1] | activity change, negative = cytotoxicity ([2]; at 83.3 µM (top of the series)) -22.6% and -13.9% | activity, negative = cytotoxicity ([3]; at 83.3 µM (top of the series)) -8.11% and -4.09% | Potency [10] | fluorescence, relative to Rose Bengal ([4]; at 46 µM (top of the series)) 0.622% | fluorescence, relative to Rose Bengal ([4]; at 91.3 µM (top of the series)) -0.234% | fluorescence, % of fluorescein control ([5]; at 46 µM (top of the series)) 0.0239% | fluorescence, % of fluorescein control ([5]; at 91.3 µM (top of the series)) 0.0538% | fluorescence, % of triamterene ([6]; at 46 µM (top of the series)) -0.258% | fluorescence, % of triamterene ([6]; at 91.3 µM (top of the series)) -0.217% | fluorescence, % of fluorescein ([7]; at 46 µM (top of the series)) 0.014% | fluorescence, % of fluorescein ([7]; at 91.3 µM (top of the series)) -0.0189% | fluorescence, % of fluorescent control ([8]; at 46 µM (top of the series)) 0.0372% | fluorescence, % of fluorescent control ([8]; at 91.3 µM (top of the series)) -0.0865%

OCCSCCO
inactive: activation ([9]; at 73.3 µM (top of the series)) 2.05% | activation ([9]; at 95.1 µM (top of the series)) -2.27% | Potency [1] | activity change, negative = cytotoxicity ([2]; at 83.3 µM (top of the series)) 15% | activity change, negative = cytotoxicity ([2]; at 95.3 µM (top of the series)) -7.76% | activity, negative = cytotoxicity ([3]; at 83.3 µM (top of the series)) 7.38% | activity, negative = cytotoxicity ([3]; at 95.3 µM (top of the series)) 17.7% | Potency [10] | fluorescence, relative to Rose Bengal ([4]; at 46 µM (top of the series)) -0.311% | fluorescence, relative to Rose Bengal ([4]; at 95.7 µM (top of the series)) -0.148% | fluorescence, % of fluorescein control ([5]; at 46 µM (top of the series)) -0.0604% | fluorescence, % of fluorescein control ([5]; at 95.7 µM (top of the series)) 0.0121% | fluorescence, % of triamterene ([6]; at 46 µM (top of the series)) -0.0294% | fluorescence, % of triamterene ([6]; at 95.7 µM (top of the series)) -0.0061% | fluorescence, % of fluorescent control ([8]; at 46 µM (top of the series)) -0.0207% | fluorescence, % of fluorescent control ([8]; at 95.7 µM (top of the series)) 0.0198%

C/C1=C2N=C(/C=C3N=C(/C(C)=C4\[N-][C@@](C)([C@@H]5N=C1[C@](C)(CCC(=O)NC[C@@H](C)OP(=O)([O-])O[C@H]1[C@@H](O)[C@@H](n6cnc7cc(C)c(C)cc76)O[C@@H]1CO)[C@H]5CC(N)=O)[C@@](C)(CC(N)=O)[C@@H]4CCC(N)=O)[C@@](C)(CC(N)=O)[C@@H]\3CCC(N)=O)C(C)(C)[C@@H]/2CCC(N)=O.[C-]#N.[Co+3]
inactive: activity change, negative = cytotoxicity ([2]; at 39.1 µM (top of the series)) -4.9% | activity, negative = cytotoxicity ([3]; at 39.1 µM (top of the series)) -7.18% | Potency [10] | fluorescence, relative to Rose Bengal ([4]; at 18.6 µM (top of the series)) 0.536% | fluorescence, % of fluorescein control ([5]; at 18.6 µM (top of the series)) 0.0241% | fluorescence, % of triamterene ([6]; at 18.6 µM (top of the series)) -0.154% | fluorescence, % of fluorescein ([7]; at 18.6 µM (top of the series)) -0.0165% | fluorescence, % of fluorescent control ([8]; at 18.6 µM (top of the series)) 0.0919%
